# Antibody variant affinities, Ab-91 heavy chain, assay 2

Data: MIT Lincoln Laboratory AlphaSeq set, Engelhart et al. 2022, doi:10.1038/s41597-022-01779-4, as distributed in FLAb.

All variants were tested on one target, the spike HR2 peptide PDVDLGDISGINAS (SARS-CoV-2).

Ab-91 is the parent antibody, in scFv form: VL, then a 15-residue (Gly4Ser)3 linker, then VH. The light chain is unchanged in all variants.
VL: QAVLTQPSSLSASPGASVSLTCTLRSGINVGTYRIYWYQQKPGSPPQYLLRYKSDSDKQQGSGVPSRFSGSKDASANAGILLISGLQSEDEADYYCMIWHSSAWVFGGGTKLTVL
VH: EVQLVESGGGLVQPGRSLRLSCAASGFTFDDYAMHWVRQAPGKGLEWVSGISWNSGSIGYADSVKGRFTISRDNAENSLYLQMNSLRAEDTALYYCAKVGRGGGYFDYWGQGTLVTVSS

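The library (AAYL51) carries one to three amino acid substitutions per variant, with no insertions or deletions. In AlphaSeq, yeast of one mating type display the scFv and yeast of the other type display the target. After mating in shaken culture at 30 °C for 16 h, diploids were selected and their barcode pairs sequenced. Each replicate has its own calibration line, from reference interactions of the BCL2 family. Each pool was mated in three replicate cultures.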

Variants are written as CDR1, CDR2 and CDR3 of the heavy chain (limits as in the source). Parent: GFTFDDYAMH, GISWNSGSIGYADSVK, VGRGGGYFDY. Values are log10 of the apparent Kd in nM; lower means stronger binding. The mean shown is taken over the replicates in which the pair was detected. "nd" means that the variant was in the library but no mating with the target was seen in that replicate; the authors take this as a sign of poor binding, and no number exists. The list is sorted by this average, lowest first, undetected variants last. Nonspecific signal, from three strains lacking the peptide, appeared in 21% of pairings of library AAYL51, centred on 4.54 (5% of these signals below 3.26); values are not corrected for it.

CDR-H1 | CDR-H2 | CDR-H3 | replicates, log10 nM | mean, log10 nM
GFTFDDYSMH | GISWNSGSIGYADSMK | VGRGGGYFDT | 0.85 0.65 -0.01 | 0.50
GFTFDDYAMH | GISGNSGSIGYADLVK | VGRGGGYPDY | 0.91 1.46 0.22 | 0.86
GFTFDDYAMH | GISWPSGSIGYADSVK | VGRGGGYFGF | 3.07 nd nd | 3.07
GFTFDDYAMH | GISWNSGSIGYFDSVF | VGRGGGYFDY | 3.80 nd nd | 3.80
GFTFDDYAMH | GIRWNSGSIGYADSVK | VGRGEGYFDH | nd 3.84 nd | 3.84
GFTFDDIAMH | GISWNVGSIGYADSVR | VGRGGGYFDY | 3.88 nd nd | 3.88
GFTFDDYGMH | GIIWNSGSIGYADHVK | VGRGGGYFDY | 3.98 4.14 nd | 4.06
GFDFDDYAMD | GISWNSGSIGYQDSVK | VGRGGGYFDY | nd 4.32 nd | 4.32
GFTFDDYAMH | GISWNSGSIGFADSVK | VGRLGGYQDY | 4.42 nd nd | 4.42
GFTFDDYQMH | GISWNSGSIGYADSNK | SGRGGGYFDY | nd nd 4.47 | 4.47
GFTFDDYAMH | GISWNSWSIGYAPSVK | VGRGGGSFDY | 5.99 3.70 3.81 | 4.50
GKTFDDYAMH | GISWNSVSIGYADSVK | YGRGGGYFDY | 4.62 nd nd | 4.62
GFTFDDYAMH | GISWNGGSIGWACSVK | VGRGGGYFDY | 4.70 nd nd | 4.70
GFTFDDYAMH | GNSWNSGSIGYADSVK | VGRGGGYFDH | 4.60 nd 5.30 | 4.95
GFTFDDYDMH | GISWNSGRIGPADSVK | VGRGGGYFDY | nd nd nd | nd
GFTFDDYMMH | GISWNVGSISYADSVK | VGRGGGYFDY | nd nd nd | nd
GFTFDDYWMH | GISVNSGSIGYDDSVK | VGRGGGYFDY | nd nd nd | nd
GYTFDDYAQH | GDSWNSGSIGYADSVK | VGRGGGYFDY | nd nd nd | nd
GFTFSDYAMH | GISWNSGSIGYADSVK | VHRGGGTFDY | nd nd nd | nd
GFTFDDYAMM | GISWNSGSIGYADSVK | VGRGGGMNDY | nd nd nd | nd
GFTFFDYAMA | GPSWNSGSIGYADSVK | VGRGGGYFDY | nd nd nd | nd
GFTFDDYAMW | MISWNSGSIGYADSVL | VGRGGGYFDY | nd nd nd | nd
GFTQDRYAMH | GGSWNSGSIGYADSVK | VGRGGGYFDY | nd nd nd | nd
SFTFDDYAMH | GISWNSGSIGYADSVK | VGRGGWYTDY | nd nd nd | nd
GFTFDWFAMH | GISWNSGSVGYADSVK | VGRGGGYFDY | nd nd nd | nd
GSTFDDYAMH | GISWNTGSIGYADSVK | VGRGGGYFMY | nd nd nd | nd
GQTFDDYAMH | GISWNSGSIGYADSVK | NGEGGGYFDY | nd nd nd | nd
GFTFDDYAMH | GIGWNSGSILYADSVK | VGRGGGYFDY | nd nd nd | nd
GFTFDDYAMF | GISWNSGSFPYADSVK | VGRGGGYFDY | nd nd nd | nd
GFTFDGYAMH | GISWNSGSIGSADSVK | VGRGGGYHDY | nd nd nd | nd
GFTFDDYAMH | GISWNSGSIGYRDSVK | WGRGGGYFDY | nd nd nd | nd

For reference, 2 entries of the list once more:

{"CDR-H1": "GFTFFDYAMA", "CDR-H2": "GPSWNSGSIGYADSVK", "CDR-H3": "VGRGGGYFDY", "replicates, log10 nM": "nd nd nd", "mean, log10 nM": "nd"}
{"CDR-H1": "GFTQDRYAMH", "CDR-H2": "GGSWNSGSIGYADSVK", "CDR-H3": "VGRGGGYFDY", "replicates, log10 nM": "nd nd nd", "mean, log10 nM": "nd"}

For reference, the parent read 1.86 as the reference entry and 0.88 as a member of this library.